# Ab-14 light chain CDR variants: yeast mating affinities

Target: peptide PDVDLGDISGINAS, taken from heptad repeat 2 (HR2) of SARS-CoV-2 spike.

Parent: Ab-14, a human scFv built as VH, a (GGGGS)3 linker, VL. Only the CDRs of the light chain vary.
VH: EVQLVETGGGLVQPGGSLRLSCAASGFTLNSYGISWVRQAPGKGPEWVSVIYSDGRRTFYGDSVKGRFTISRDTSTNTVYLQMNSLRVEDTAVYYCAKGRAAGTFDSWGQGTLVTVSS
VL: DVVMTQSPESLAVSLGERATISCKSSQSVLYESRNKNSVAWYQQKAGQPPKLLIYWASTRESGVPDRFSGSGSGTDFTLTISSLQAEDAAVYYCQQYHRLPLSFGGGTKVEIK

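Phage display of a naive human antibody library on the peptide gave the parent. These sequences belong to a second round, designed from the earlier measurements on random variants of the parent. Several design methods are mixed in this list. In AlphaSeq, yeast of one mating type display the scFv and yeast of the other type display the target. The frequency of each diploid, read from paired DNA barcodes, reflects how well the two displayed proteins bind. A regression on co-assayed BCL2-family reference pairs converts the normalised counts of each replicate to an apparent Kd. The assay was run in six technical replicates.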

Variants are written as CDR1, CDR2 and CDR3 of the light chain (limits as in the source). Parent: KSSQSVLYESRNKNSVA, WASTRES, QQYHRLPLS.
This list holds designs with at most six substitutions.
Each Kd is an estimate from the mating assay, the geometric mean of the replicates in which the pair was seen; lower is stronger.
A pair that was not seen in any replicate is written "no signal"; this usually means weak binding, but a binder can also be missed.
The list is sorted by this average, lowest first, undetected variants last.
Values of this round are not directly comparable with the first-round values of the same sequences.
Empty control strains, which show no peptide, gave a signal in 4% of pairings with all light chain designs; the median was 430 nM and 95% of these signals were weaker than 38 nM. No background was subtracted.
In the paper, a design with two or fewer of six values counts as a poor binder.

With KLQQSWLYESRNKNSVA / NASQRLS / QQYHRLPLS the result was 290 pM (6 of 6 replicates). With KLQQSVLYESRMKNSVA / GASTRES / QQYHRLPLS the result was 290 pM (6 of 6 replicates). With KLPQSVLYESRNKNNVA / NASTRES / QQYHRLPLS the result was 370 pM (6 of 6 replicates). For KLSQSWLYESRNKNSVA / NASTRES / QDYHRLPLS, the assay gave 390 pM (6 of 6 replicates). For KMSQSNLYESRNKNSVA / NASTRES / QQYHRLPLS, the assay gave 400 pM (6 of 6 replicates). Variant KLSQSYLYESRNKNSVA / NASTRLS / QQYHRLPLS gave 440 pM (6 of 6 replicates). Variant FLSQSWLYESRNKNSVA / GGNTRES / QQYHRLPLS gave 520 pM (6 of 6 replicates). Variant KLEQQWLYESRNKNSVA / NASTRES / QQYHRLPLS showed 530 pM (6 of 6 replicates).

With KLDQSTLYESRNKNSVA / NASTRLS / QQYHRLPLS the result was 540 pM (6 of 6 replicates). With KLSMSDLYEMRNKNSVA / EASTREK / QQYHRLPLS the result was 600 pM (6 of 6 replicates). For RSSQSWLYESRNKNSVA / GASTRES / QQYHRLPLS, the assay gave 800 pM (6 of 6 replicates). For KLQQSELYESRNKNSVA / EASTRMS / QQYHRLPLS, the assay gave 830 pM (6 of 6 replicates). Variant KCSQSVDYESRNKNSVA / DASTRES / QQYHRLPLS gave 890 pM (6 of 6 replicates). For KMEQGVLYESRNKNSVA / GASTRES / QQYHRLPLS, the assay gave 900 pM (6 of 6 replicates). Variant KLSMSWLYESRNKNSVA / NASTRMS / QQYHRLPLS gave 920 pM (6 of 6 replicates). With KLEQSQLYESRNKNSVA / NASTRES / QDYHRLPLS the result was 1.1 nM (5 of 6 replicates).

With KSSSSGLYESRMKNSVA / EASTRES / QQYHRLPLS the result was 1.1 nM (6 of 6 replicates). For KLSQEWLYESRNKNSVA / NASTRES / QQYHRLPLS, the assay gave 1.1 nM (6 of 6 replicates). For HSYQSGLYESRNQNSVA / SASMRES / QQYHRLPLS, the assay gave 1.6 nM (6 of 6 replicates). Variant KLRQSMLYESRNKNSVA / QASTRES / QQYHRLPLT gave 1.8 nM (6 of 6 replicates). With KISQSWLYESRNKNSVA / GASTRES / QQYHRLPLS the result was 1.8 nM (6 of 6 replicates). With KFSQKVLYEARTKNSVA / NASTRES / QQYHRLPLS the result was 2.0 nM (6 of 6 replicates). For KVLQSWLYESRNKNSVA / HASTREQ / QQYHRLPLS, the assay gave 2.6 nM (6 of 6 replicates). Variant KISQSVLYEGRNKNSVA / EASTRES / QQYHRLPLS showed 3.1 nM (6 of 6 replicates).

Variant HSSQSVPYESRNKNSVA / SASTREW / QQYHRLPLS gave 7.1 nM (6 of 6 replicates). With KLSQGWLYESRNKNSVA / NASQREH / QQYHRLPLS the result was 9.2 nM (6 of 6 replicates). With KSSQSVQYESNNKNSVA / WASTRES / QQYRRLPLS the result was 17 nM (6 of 6 replicates). For KLYQSHLYESRNKNSVA / QASTRES / QQYHRLPLS, the assay gave 32 nM (6 of 6 replicates). Variant KSSQSVLIESRNKNSVA / HASTRES / QQYHRLPLS gave 37 nM (5 of 6 replicates). Variant KASKSVLYEGRNKNSVA / WASTRES / QQYHRLPLS showed 38 nM (6 of 6 replicates). With KSSQSVLYESDNKNSVA / ADSTRES / QQYHRLPLS the result was 38 nM (1 of 6 replicates). For KCSQSVLYEDRNKNSVA / WANTRES / QQYHRLPLS, the assay gave 39 nM (6 of 6 replicates).

Variant KSSQSVLYEERNGNSVA / NASTRES / QQYHRLPLW showed 49 nM (6 of 6 replicates). Variant KSSLSVEEESRNKNSVA / WAMTRES / QQYHRLPLE gave 100 nM (2 of 6 replicates). With KSSQSVLYESREKYSVA / WASTRES / QQYHRLPLS the result was 120 nM (2 of 6 replicates). For KSSQAVLYESRNKNSVA / WAITRES / QQYHRLPLS, the assay gave 210 nM (1 of 6 replicates). Variant KSSQSVLYESRNKNSVA / WASTRLS / QQYHRLPLS showed 280 nM (4 of 6 replicates). With KLMNSTLYESRQKNSVA / WASTRES / QQYHRLPLS the result was 290 nM (6 of 6 replicates). With MSSNSVLYEARNKNSVA / GASTRES / QQPHRLPLS the result was no signal (0 of 6 replicates). Variant KSSQSVLRESRNKNSVA / WASTRES / QQYHVLHCS gave no signal (0 of 6 replicates).

Variant KSSQSVLYEERNKNSVA / FHSTRES / QQYHRLPLS gave no signal (0 of 6 replicates). For KSSQSYLDESFNKNSVA / WASTRES / QQYHRLPLG, the assay gave no signal (0 of 6 replicates). For KSSQSVLYESGNGNSVA / WASIRES / QQYHRLVFS, the assay gave no signal (0 of 6 replicates). Variant KSSQSVLYESRNKNSVA / WASTRES / QQYCRLPLS showed no signal (0 of 6 replicates).

A selection of 3 entries from above:

| CDR-L1 | CDR-L2 | CDR-L3 | apparent Kd | detected |
|---|---|---|---|---|
| KFSQKVLYEARTKNSVA | NASTRES | QQYHRLPLS | 2.0 nM | 6 of 6 |
| KCSQSVDYESRNKNSVA | DASTRES | QQYHRLPLS | 890 pM | 6 of 6 |
| KLPQSVLYESRNKNNVA | NASTRES | QQYHRLPLS | 370 pM | 6 of 6 |

Data: MIT Lincoln Laboratory AlphaSeq set, Li et al. 2023, doi:10.1038/s41467-023-39022-2, as distributed in FLAb.